Biological target: α7^L131G,Q139L,Y217F-GlyR (PSAM^4-GlyR) (Homo sapiens, UniProt P36544, L131G/Q139L/Y217F)
Assay: Competition binding by displacement of [3H]-ASEM at PSAM4-GlyR

Amino acid sequences for entries named in this document (tags omitted). Residues count along the entry.
UniProt P36544, 23-229 L131G/Q139L/Y217F: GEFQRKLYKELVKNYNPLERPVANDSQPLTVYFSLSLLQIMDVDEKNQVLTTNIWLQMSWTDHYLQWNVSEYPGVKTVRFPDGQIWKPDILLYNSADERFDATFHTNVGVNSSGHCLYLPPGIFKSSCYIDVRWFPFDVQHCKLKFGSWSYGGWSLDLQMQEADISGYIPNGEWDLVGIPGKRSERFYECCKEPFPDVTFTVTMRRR

c1cnc2cc3c(cc2n1)[C@@H]1CNC[C@H]3C1 [varenicline]
Ki: 1.3 ± 0.4 nM

Source: article PMC7252514 (Science (New York, N.Y.), 2019)
